Sequences of proteins named here, by UniProt entry; tags and fusion partners are left off.
UniProt Q14145, whole entry: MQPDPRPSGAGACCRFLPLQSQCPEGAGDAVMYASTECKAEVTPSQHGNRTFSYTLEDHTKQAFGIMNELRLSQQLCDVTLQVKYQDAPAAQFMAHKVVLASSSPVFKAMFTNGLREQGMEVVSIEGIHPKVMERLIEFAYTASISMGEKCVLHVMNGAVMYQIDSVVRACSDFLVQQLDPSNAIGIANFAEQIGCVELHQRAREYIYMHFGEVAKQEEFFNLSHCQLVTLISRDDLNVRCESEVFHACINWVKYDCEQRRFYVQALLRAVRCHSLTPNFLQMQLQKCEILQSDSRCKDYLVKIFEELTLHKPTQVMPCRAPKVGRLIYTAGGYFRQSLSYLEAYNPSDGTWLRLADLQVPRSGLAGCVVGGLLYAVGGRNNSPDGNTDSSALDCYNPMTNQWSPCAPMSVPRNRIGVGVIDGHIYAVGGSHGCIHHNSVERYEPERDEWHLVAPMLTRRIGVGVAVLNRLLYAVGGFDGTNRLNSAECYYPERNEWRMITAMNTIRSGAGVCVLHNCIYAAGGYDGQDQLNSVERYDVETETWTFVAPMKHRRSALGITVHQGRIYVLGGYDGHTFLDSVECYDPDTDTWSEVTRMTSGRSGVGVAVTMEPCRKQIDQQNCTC

In PMC4019986, “Structural and biochemical characterization of the KLHL3–WNK kinase interaction important in blood pressure regulation” (Biochemical Journal, 2014):

Molecular target: T1, KEAP1 full-length protein (residues 1–624) (UniProt Q14145 1-624)
T1 construct: KEAP1, NM_203500.1, amplified from EST IMAGE 3163902, residues 1-624; NM_203500.1 is a human transcript as far as I recall; also called Kelch-like enoyl-CoA hydratase-associated protein 1; source: Sf21 cells, purified (ampicillin–Sepharose, TEV protease release, size-exclusion chromatography); not shown: DAC, N-terminal, cleaved
Experiment: fluorescence polarisation; Kelch protein titrated against 10 nM Lumio-Green-labelled peptide; 25°C; 50 mM Tris/HCl pH 7.5, 150 mM NaCl, 2 mM DTT; one-site specific binding with Hill slope; duplicates, at least 12 points per curve
Settings: both partners purified

B1: NRF2 degron peptide (NRF2 WT 74–84) (peptide)
peptide: LQLDEETGEFL
modifications: Lumio Green fluorophore on the N-terminal linker …
notes: nuclear factor-erythroid 2-related factor 2 (NRF2), degron motif, residues 74-84; also called NRF2 degron motif; source: synthetic peptide (GL Biochem)
For B1, the Kd was 440 nM.
